# Patent US9248103B2, “Method for improving water solubility of slightly soluble substance” (Kabushiki Kaisha Sangi, priority 2012, dated 2016)
# Assay: Dissolution test of poorly-soluble substances, 2nd fluid for disintegration test (pH 6.8) of the Japanese Pharmacopoeia;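 note: Comparative example rows not the inventive coated formulation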
# Type: physicochemical
# Conditions: Alacepril
compound,measurement,value
"CC(=O)SC[C@@H](C)C(=O)N1CCC[C@H]1C(=O)N[C@@H](Cc1ccccc1)C(=O)O [8-1, Alacepril]","Dissolved amount, elution time 360 min",2548.2 µg/mL
